What is called IC50 is the concentration that gives 50% inhibition. The low end stands for greater potency in that assay, the high end for weaker potency in that assay.

By UniProt entry, the sequences of proteins in these tests, tags left out.
UniProt Q16539, whole entry: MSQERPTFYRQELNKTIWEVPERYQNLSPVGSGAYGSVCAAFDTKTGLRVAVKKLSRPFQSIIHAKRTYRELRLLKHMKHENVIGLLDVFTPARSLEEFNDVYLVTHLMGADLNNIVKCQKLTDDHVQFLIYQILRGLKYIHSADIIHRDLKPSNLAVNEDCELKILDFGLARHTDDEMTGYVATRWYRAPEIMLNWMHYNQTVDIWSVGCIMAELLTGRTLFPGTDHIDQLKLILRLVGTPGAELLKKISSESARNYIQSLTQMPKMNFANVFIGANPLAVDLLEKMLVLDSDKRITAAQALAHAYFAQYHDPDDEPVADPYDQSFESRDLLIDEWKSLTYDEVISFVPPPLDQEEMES

For this assay, the target named is p38 MAPKα (MAPK14) (Homo sapiens, UniProt Q16539). The assay can be described thus: p38α enzyme assay (Z'-LYTE FRET, via MAPKAP-K2 activation). In kind it is biochemical. Conditions: 2 hr pre-incubation, ATP 10 μM.

`CNC(=O)Nc1cnccc1COc1ccc(NC(=O)Nc2cc(C(C)(C)C)nn2-c2ccc(C)cc2)c2ccccc12` returned an IC50 of 2.1 nM.

(Values after patent publication US20120244120A1, “INHIBITORS OF HEMOPOIETIC CELL KINASE (P59-HCK) AND THEIR USE IN THE TREATMENT OF INFLUENZA INFECTION” (priority 2009, published 2012).)
